pIC50: −log10 of the molar value.
What was measured:
MCF−7 cells = assay: MTT cell viability/proliferation assay, MCF−7; conditions: compound concentration 200 μM
MTH1 = MTH1 (Homo sapiens, UniProt P36639); assay: MTH1 enzymatic inhibition, malachite green colorimetric assay; conditions: read-out: IC50 to MTH1 (mean ± SD); malachite green staining assay, dGTP substrate

CNc1cc(Nc2cccc(Cl)c2Cl)nc(N)n1
Inhibition (%) (Mean ± SD) of MCF−7 cell proliferation (MCF−7 cells): 11.8 ± 4.5%

CNc1nc(N)nc(NCCc2ccccc2)n1
Inhibition (%) (Mean ± SD) of MCF−7 cell proliferation (MCF−7 cells): 27.3 ± 4.2%

CNc1cc(Nc2cccc(F)c2)nc(N)n1
Inhibition (%) (Mean ± SD) of MCF−7 cell proliferation (MCF−7 cells): 28.1 ± 1.5%
pIC50 (MTH1): < 6.30

CNc1cc(Nc2ccccc2F)nc(N)n1
Inhibition (%) (Mean ± SD) of MCF−7 cell proliferation (MCF−7 cells): 30.3 ± 4.1%

Nc1nc(Nc2ccccc2)cc(NC2CC2)n1
Inhibition (%) (Mean ± SD) of MCF−7 cell proliferation (MCF−7 cells): 44.2 ± 8.4%

CCNc1cc(Nc2ccccc2)nc(N)n1
Inhibition (%) (Mean ± SD) of MCF−7 cell proliferation (MCF−7 cells): 37.8 ± 8.8%

CNc1nc(N)nc(Nc2cccc(Cl)c2Cl)n1
Inhibition (%) (Mean ± SD) of MCF−7 cell proliferation (MCF−7 cells): 52.1 ± 2.9%
